The source of these data is article PMC11672541, “Evaluation of Subetadex-α-methyl, a Polyanionic Cyclodextrin Scaffold, as a Medical Countermeasure against Fentanyl and Related Opioids” (2024).

Where “and” joins values, the source holds several entries; their conditions need not be identical. Identical values can stand only once.

One data set deals with human erythrocytes. The experiment in a line: Hemolytic activity. Particulars: 10 mg/mL, 2 h, normalized to SGX, mean ± SEM.
For another data set, the system named is kidneys. Particulars: rats, therapeutic dose levels; no deterioration in renal function; cited from earlier work.
Data set [1] relates to hemoglobin-free human erythrocyte ghosts. Description: Solubilization of phospholipids. The settings on record: CD 25 mg/mL, normalized to SGX, mean ± SEM.
Data set [2] in a line: Tissue distribution of 14C-SBX-Me. The settings on record: at the Cmax, adjusted to total tissue weight.
The nature of data set [3]: Pharmacokinetics of 14C-SBX-Me (IV or IM), plasma by AMS. The settings on record: for AUC0-t: t = 24 h.
Data set [4] is described as follows: Binding of polyanionic cyclodextrins to fentanyl (binding constant, NMR). Particulars: see SI.

On to `O=C(O)CCCSC[C@H]1O[C@@H]2O[C@H]3[C@H](O)[C@@H](O)[C@@H](O[C@H]4[C@H](O)[C@@H](O)[C@@H](O[C@H]5[C@H](O)[C@@H](O)[C@@H](O[C@H]6[C@H](O)[C@@H](O)[C@@H](O[C@H]7[C@H](O)[C@@H](O)[C@@H](O[C@H]8[C@H](O)[C@@H](O)[C@@H](O[C@H]1[C@H](O)[C@H]2O)O[C@@H]8CSCCCC(=O)O)O[C@@H]7CSCCCC(=O)O)O[C@@H]6CSCCCC(=O)O)O[C@@H]5CSCCCC(=O)O)O[C@@H]4CSCCCC(=O)O)O[C@@H]3CSCCCC(=O)O`, for which the Hemolytic activity in the data set on human erythrocytes is on record as 338.1% ± 68.9.

Take Sugammadex: the “histopathological effect in the kidneys” value with kidneys was “histopathological degeneration in the kidneys”.

As to `O=C(O)CCSC[C@H]1O[C@@H]2O[C@H]3[C@H](O)[C@@H](O)[C@@H](O[C@H]4[C@H](O)[C@@H](O)[C@@H](O[C@H]5[C@H](O)[C@@H](O)[C@@H](O[C@H]6[C@H](O)[C@@H](O)[C@@H](O[C@H]7[C@H](O)[C@@H](O)[C@@H](O[C@H]8[C@H](O)[C@@H](O)[C@@H](O[C@H]1[C@H](O)[C@H]2O)O[C@@H]8CSCCC(=O)O)O[C@@H]7CSCCC(=O)O)O[C@@H]6CSCCC(=O)O)O[C@@H]5CSCCC(=O)O)O[C@@H]4CSCCC(=O)O)O[C@@H]3CSCCC(=O)O`, in the data set with human erythrocytes, the Hemolytic activity was 534.2% ± 110.1.

Regarding `CC(CSC[C@H]1O[C@@H]2O[C@H]3[C@H](O)[C@@H](O)[C@@H](O[C@H]4[C@H](O)[C@@H](O)[C@@H](O[C@H]5[C@H](O)[C@@H](O)[C@@H](O[C@H]6[C@H](O)[C@@H](O)[C@@H](O[C@H]7[C@H](O)[C@@H](O)[C@@H](O[C@H]8[C@H](O)[C@@H](O)[C@@H](O[C@H]1[C@H](O)[C@H]2O)O[C@@H]8CSCC(C)C(=O)O)O[C@@H]7CSCC(C)C(=O)O)O[C@@H]6CSCC(C)C(=O)O)O[C@@H]5CSCC(C)C(=O)O)O[C@@H]4CSCC(C)C(=O)O)O[C@@H]3CSCC(C)C(=O)O)C(=O)O` (stereo partly drawn), the Phospholipid solubilization entry in data set [1] is given as “no significant difference”. Further, the Hemolytic activity in the data set on human erythrocytes is 7.7% ± 13.8. Also, in data set [2], the “proportion of the administered dose in all other tissues” value is “less than 1%” and the “proportion of the administered dose in kidney” value stood at 2.5%. The “proportion of the administered dose in liver” value in data set [2] (mean) was found to be 5.2%. Moreover, in data set [3] (16 mg/kg IM, SBX-Me alone), the AUC0-inf is 56.5 ± 20.5 µg·h/mL; the CL was determined as 306.4 ± 102 mL/h/kg; the Vd is 5896.3 ± 523 mL/kg; the t1/2dist is 49.8 min and 49.8 ± 10.8 min. In data set [3] (16 mg/kg IM, SBX-Me alone), this molecule had a t1/2elim of 14.71 ± 2.6 h, a tmax of 18 ± 0 min and an AUC0-t of 42.0 ± 7.71 µg·h/mL. Besides, in data set [3] (16 mg/kg IM, SBX-Me alone, plasma), the Cmax was determined as 14.7 ± 2.6 µg/mL. In data set [3] (16 mg/kg IV), this molecule showed a CL of 220.5 ± 13.9 mL/h/kg and a Vd of 2349.2 ± 231 mL/kg. In addition, in data set [3] (16 mg/kg IV, plasma), the AUC0-inf came out at 72.7 ± 4.54 µg·h/mL; the Cmax is 49.8 ± 4.4 µg/mL; the t1/2dist is 19.8 min and 19.8 ± 19.2 min; the t1/2elim is 7.4 h and 7.38 ± 0.46 h. For the same molecule, the AUC0-t in data set [3] (16 mg/kg IV, plasma) is 66.9 ± 4.76 µg·h/mL. Also, the “binding between SBX-Me and fentanyl (NMR results)” value in data set [4] is listed as “strong binding”.
